Values after ≈ are worked out from the molar mass of the structure shown.
Assays:
[1] = test system: Aeromonas salmonicida ATCC 14174; test: Antimicrobial spectrum, agar dilution MIC; assay type: cell-based; settings: ATCC14174, agar dilution method
fungi = test: Antimicrobial activity, agar dilution, summary; assay type: cell-based; settings: agar dilution method
Yoshida sarcoma = test: Inhibition of growth of Yoshida sarcoma in cell culture; settings: Rattus norvegicus, read-out: inhibition of growth of Yoshida sarcoma in cell culture
[2] = test system: Aeromonas salmonicida (red disease); test: Growth inhibition of fish pathogen; assay type: cell-based
Pseudomonas fluorescens = test: Antimicrobial spectrum, agar dilution MIC; assay type: cell-based; settings: agar dilution method
Gram-positive bacteria = test: Antimicrobial activity, agar dilution, summary; assay type: cell-based
[3] = test system: Vibrio anguillarun NCBM 6; test: Antimicrobial spectrum, agar dilution MIC; assay type: cell-based; settings: NCBM6, agar dilution method
Trichlphyton asteroides = test: Antimicrobial spectrum, agar dilution MIC; assay type: cell-based; settings: agar dilution method
[4] = test system: red disease (Aeromonas sp.) of loaches; test: Preventive and curative effect against red disease of loaches; assay type: in vivo
L-1210 mouse leukemia = test: Survival of mice inoculated with L-1210 mouse leukemia; settings: for survival time, % of the control: 1 × 10^5 cells inoculated i.p.
Gram-negative bacteria = test: Antimicrobial activity, agar dilution, summary; assay type: cell-based
Solubility in solvents = assay type: physicochemical; settings: methanol, ethanol, butanol, ethyl acetate, butyl acetate, dimethyl sulfoxide and alkaline water
Vibrio anguillarum = test: Growth inhibition of fish pathogen; assay type: cell-based
Escherichia coli ML 1629 = test: Antimicrobial spectrum, agar dilution MIC; assay type: cell-based; settings: ML1629, agar dilution method
Proteus vulgaris OX 19 = test: Antimicrobial spectrum, agar dilution MIC; assay type: cell-based; settings: OX19; Proteus vulgaris OX 19; agar dilution method; read-out: MIC
[5] = test system: Klebsiella pneumoniae PCI 602; test: Antimicrobial spectrum, agar dilution MIC; assay type: cell-based; settings: PCI602, agar dilution method
Pseudomonas A3 = test: Antimicrobial spectrum, agar dilution MIC
[6] = test system: Mycobacterium smegmatic ATCC 607; test: Antimicrobial spectrum, agar dilution MIC; assay type: cell-based; settings: ATCC607, agar dilution method
test microorganisms = test: Antimicrobial activity of methyl ester, agar dilution, summary; assay type: cell-based; settings: agar dilution method
Salmonella typhi T-63 = test: Antimicrobial spectrum, agar dilution MIC; assay type: cell-based; settings: Salmonella enterica
Sarcina lutea PCI 1001 = test: Antimicrobial spectrum, agar dilution MIC; assay type: cell-based; settings: Micrococcus luteus, PCI1001, agar dilution method
[7] = test system: Micrococcus flavus FDA 16; test: Antimicrobial spectrum, agar dilution MIC; assay type: cell-based; settings: FDA16; Micrococcus flavus FDA 16; agar dilution method; read-out: MIC
Escherichia coli K-12 = test: Antimicrobial spectrum, agar dilution MIC; assay type: cell-based; settings: Escherichia coli, K12
[8] = test system: Corynebacterium bovis 1810; test: Antimicrobial spectrum, agar dilution MIC; assay type: cell-based; settings: Corynebacterium bovis 1810; agar dilution method; read-out: MIC
[9] = test system: Staphylococcus aureus Smith; test: Antimicrobial spectrum, agar dilution MIC; assay type: cell-based; settings: Staphylococcus aureus Smith; agar dilution method; read-out: MIC
Escherichia coli NIHJ = test: Antimicrobial spectrum, agar dilution MIC; assay type: cell-based; settings: agar dilution method
Pseudomonas No. 12 = test: Antimicrobial spectrum, agar dilution MIC

**Q.** Which MIC [1] does the source give for `N#CN=[N+]([O-])c1ccc(C(=O)O)cc1` [calvatic acid, p-carboxyphenylazoxycarbonitrile] here?
**A.** < 0.78 µg/mL

**Q.** And the “antimicrobial activity against the fungi” value (fungi)?
**A.** weak

**Q.** What about the inhibition at 1.56 µg/mL (Yoshida sarcoma) of the same compound?
**A.** ~50%

**Q.** What about the “inhibits the growth of Aeromonas salmonicida (red disease)” value [2] of the same compound?
**A.** inhibits especially the growth

**Q.** And the MIC (Pseudomonas fluorescens)?
**A.** > 100 µg/mL

**Q.** What about the “antimicrobial activity against the Gram-positive bacteria” value (Gram-positive bacteria; agar dilution method) of the same compound?
**A.** strong

**Q.** What about the MIC [3] of the same compound?
**A.** < 0.78 µg/mL

**Q.** What about the MIC (Trichlphyton asteroides) of the same compound?
**A.** > 100 µg/mL

**Q.** What about the Percent of death ([4]; Expt. 1, 5 mg./L in water, 12 loaches, 3 breeding days (control 0 mg./L: 100)) of the same compound?
**A.** 33%

**Q.** What about the survivors ([4]; Expt. 1, 5 mg./L, 3 breeding days) of the same compound?
**A.** 67%

**Q.** What about the Percent of death ([4]; Expt. 2, 10 mg./L in water, 20 loaches, 10 breeding days (control 0 mg./L, 7 days: 100)) of the same compound?
**A.** 15%

**Q.** What about the “survival time, % of the control” value (L-1210 mouse leukemia; 100 mcg./mouse × 10, intraperitoneal) of the same compound?
**A.** 138%

**Q.** And the “survival time, % of the control” value (L-1210 mouse leukemia; 200 mcg./mouse × 10, intraperitoneal)?
**A.** 147%

**Q.** And the “survival time, % of the control” value (L-1210 mouse leukemia; 400 mcg./mouse × 10, intraperitoneal)?
**A.** 153%

**Q.** What about the “inhibition of growth of L-1210 mouse leukemia” value (L-1210 mouse leukemia; mouse, in vivo) of the same compound?
**A.** inhibited the growth

**Q.** And the “antimicrobial activity against the Gram-negative bacteria” value (Gram-negative bacteria; agar dilution method)?
**A.** weak

**Q.** What about the solubility (Solubility in solvents) of the same compound?
**A.** soluble

**Q.** And the “inhibits the growth of Vibrio anguillarum” value (Vibrio anguillarum)?
**A.** inhibits especially the growth

**Q.** Which MIC (Escherichia coli ML 1629) does the source give for `COC(=O)c1ccc([N+]([O-])=NC#N)cc1` [calvatic acid methyl ester] here?
**A.** 12.5 µg/mL (≈ 60.9 µM)

**Q.** And the MIC (Proteus vulgaris OX 19)?
**A.** 3.12 µg/mL (≈ 15.2 µM)

**Q.** What about the MIC [5] of the same compound?
**A.** 6.25 µg/mL (≈ 30.5 µM)

**Q.** What about the MIC (Pseudomonas A3) of the same compound?
**A.** 50 µg/mL (≈ 244 µM)

**Q.** What about the “antimicrobial activity against the Gram-positive bacteria compared with calvatic acid” value (Gram-positive bacteria; methyl ester vs calvatic acid) of the same compound?
**A.** almost the same as that of calvatic acid

**Q.** What about the MIC [6] of the same compound?
**A.** 3.12 µg/mL (≈ 15.2 µM)

**Q.** What about the antimicrobial activity (test microorganisms) of the same compound?
**A.** strong antimicrobial activity

**Q.** What about the MIC (Salmonella typhi T-63) of the same compound?
**A.** 6.25 µg/mL (≈ 30.5 µM)

**Q.** And the “antimicrobial activity against the Gram-negative bacteria compared with calvatic acid” value (Gram-negative bacteria; methyl ester vs calvatic acid)?
**A.** clearly stronger than that of calvatic acid

**Q.** And the MIC (Sarcina lutea PCI 1001)?
**A.** 6.25 µg/mL (≈ 30.5 µM)

**Q.** What about the MIC [7] of the same compound?
**A.** 3.12 µg/mL (≈ 15.2 µM)

**Q.** And the MIC (Escherichia coli K-12)?
**A.** 6.25 µg/mL (≈ 30.5 µM)

**Q.** What about the MIC [8] of the same compound?
**A.** 3.12 µg/mL (≈ 15.2 µM)

**Q.** What about the MIC [9] of the same compound?
**A.** 6.25 µg/mL (≈ 30.5 µM)

**Q.** And the MIC (Escherichia coli NIHJ)?
**A.** 6.25 µg/mL (≈ 30.5 µM)

**Q.** What about the MIC (Pseudomonas No. 12) of the same compound?
**A.** > 50 µg/mL
